Reference: patent publication US9752236B2, “Corrosion inhibitors” (Rhodia Operations, priority 2010, dated 2017)

Assay: Water solubility (remark on preparing the stock solution)

**Q.** Which water solubility does the source give for “Tall oil aminoethyl imidazoline [tall oil aminoethyl imidazole]” here?
**A.** not water soluble
